Molecular target: His-PPARγ LBD (Homo sapiens, UniProt P37231)
Type: biochemical
Conditions: TRAP220 coactivator peptide; no covalent antagonist

Chains of the proteins cited; added tags and fusions are not shown. Residues count along the entry.
UniProt P37231, 231-505: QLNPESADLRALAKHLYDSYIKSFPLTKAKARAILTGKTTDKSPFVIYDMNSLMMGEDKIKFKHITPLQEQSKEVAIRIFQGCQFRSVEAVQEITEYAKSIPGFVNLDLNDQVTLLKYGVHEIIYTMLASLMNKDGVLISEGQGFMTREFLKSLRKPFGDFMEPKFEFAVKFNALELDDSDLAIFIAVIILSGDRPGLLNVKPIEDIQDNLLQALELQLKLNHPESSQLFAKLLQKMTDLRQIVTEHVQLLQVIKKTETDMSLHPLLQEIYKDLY

CN(CCOc1ccc(CC2SC(=O)NC2=O)cc1)c1ccccn1 (stereo not shown) [rosiglitazone]
TRAP220 recruitment on titration into apo/ligand-free PPARγ LBD: concentration dependent increase in TRAP220 recruitment

Reference: article PMC5652320 (ACS chemical biology, 2017)
